Measured values as given in patent publication US11458134B2, “1-[2-(2,4-dimeihylphenylsulfanyl)-phenyl]piperazine as a compound with combined serotonin reuptake, 5-HT3 and 5-HT1A activity for the treatment of cognitive impairment” (H. Lundbeck A/S, priority 2006, dated 2022).

Experiment: Solubility in water

Question: With “1-[2-(2,4-Dimethylphenylsulfanyl)-phenyl]piperazine meso-tartaric acid [meso-tartrate]” as the substance, how does the solubility in water read?
Answer: ~700 µg/mL
